Data on one molecule can be found in patent US20020177166A1, “Binding motif of a receptor” (MEDVET SCIENCE PTY.LTD., priority 2000, published 2002).

“Also recorded” adds a separate entry of the source.

Assay [1] deals with 14-3-3 binding to βc. The assay can be described thus: Co-immunoprecipitation of 14-3-3 with βc in CTL-EN cells. Format: cell-based. Particulars: CTL-EN wtβc, 50 ng/ml IL-3. On the procedure:
CTL-EN cells expressing IL-3Ra and either wtβc or βcHSRSLP→EFAAAA were washed, starved for 4 hours in DMEM containing 0.1% FCS and then stimulated with 50 ng/ml IL-3 for the indicated times. Cells were then lysed and the βc immunoprecipitated (7×10^7 cells/IP) with the 1C1 anti-βc specific mAb. Immunoprecipitates were divided and 80% or 20% were separately run on SDS-PAGE and transferred to nitrocellulose filters. (a) 80% of the immunoprecipitates were probed with the anti-phospho-Ser585βc antibody, the filters stripped, and reprobed with the 1C1 anti-βc mAb. 20% or the immunoprecipitates were probed with the 4G10 anti-phosphotyrosine antibody. (b) Regulation of 14-3-3 association with βc following IL-3 stimulation. […]
The regulation of βcSer585 phosphorylation in response to IL-3 stimulation was then examined in these cell lines using anti-phospho-Ser585βc antibodies. […] Tyrosine phosphorylation of βc was detected for both the wtβc and the βcHSRSLP→EFAAAA mutant (FIG. 11a). […]
To address the functional significance of 14-3-3 binding to βc cell lines were generated expressing either wild type (wt) or mutant IL-3 receptors lacking the 143-3 binding site. […] Immunoprecipitates were electrophoresed on a polyacrylamide gel and the amount of radiolabelled receptor immunoprecipitated was quantified using a phosphorImager. […]

Assay [2] concerns p85 regulatory subunit of PI 3-kinase association with βc. The assay can be described thus: Co-immunoprecipitation of p85 with βc in CTL-EN cells. Format: cell-based. The note with it: IL-3. Here is the method: (a) analysis of PI 3-kinase activity. CTL-EN cells expressing IL-3Ra and either wtβc or βcHSRSLP→EFAAAA were starved for 12 hours in DMEM containing 0.5% FCS and stimulated with 50 ng/ml IL-3 for the indicated times. Cells were then lysed and phospho-tyrosine containing proteins were immunoprecipitated (2×10^7 cells/IP) using the 4G10 antibody. Immunoprecipitates were washed in 1× PI 3-kinase buffer (20 mM HEPES, pH 7.5, 5 mM MgCl2, 1 mM EGTA) and PI 3-kinase activity was analysed in a lipid kinase assay using phosphatidyl inositol and g^32PATP as substrates as described in the “Materials and Methods”. Autoradiogram of TLC plate is shown with ^32P-labelled phosphatidyl inositols (PIP) and the origin indicated. […] (b) CTL-EN cells were also examined for the association of βc with p85. CTL-EN cells expressing either wtβc or βcHSRSLP→EFAAAA were starved for 12 hours in DMEM containing 0.5% FCS and then stimulated with 50 ng/ml IL-3 for the indicated times. Cells were then lysed and the βc immunoprecipitated (2×10^7 cells/IP) with the 1C1 anti-βc specific mAb. Immunoprecipitates were then subjected to SDS-PAGE, transferred to nitrocellulose and immunoblotted with anti-p85 (1 mg/ml) followed by detection with HRP-conjugated anti-rabbit IgG antibody and ECL. The filters were then stripped, probed with anti-SHP2 (1 mg/ml), stripped again and finally probed with 1C1 anti-βc (2 mg/ml). […] The association of hisβc445-881 with p85 was also assessed in pull-down experiments together with peptide competition. (c) List of peptides used in the hisbβc445-881 pull-down experiment. S refers to a phospho-serine residue. (d) Association of p85 with recombinant hisβc445-881. hisβc445-881 (10 mg) coupled to Sepharose resin and phosphorylated on Ser585 with PKA (lanes 1-5) or Sepharose alone (lane 6) was incubated with COS-7 pre-cleared lysates in the absence (lane 1) or in the presence of 200 mM competing peptides (lane 2, scrambled. Lane 3, Ser585Ala. Lane 4, non-phospho-Ser585. lane 5, phospho-Ser585) for 1 hour at 4° C. […]

B1: IL-3: recombinant human IL-3 produced in E. coli (protein, UniProt P08700 20-152, looked up)
Interleukin-3: APMTQTTPLKTSWVNCSNMIDEIITHLKQPPLPLLDFNNLNGEDQDILMENNLRRPNLEAFNRAVKSLQNASAIESILKNLLPCLPLATAAPTRHPIHIKDGDWNEFRRKLTFYLKTLENAQAQQTTLSLAIF
As to B1, the “14-3-3 binding to βc” value in assay [1] is “increased 14-3-3 binding to βc”. Further, the “recruitment of p85 to βc” value is “association of p85 with wtβc which was maximal at 5 minutes; also recorded: recruitment of p85 to wtβc” in assay [2] (CTL-EN wtβc), “virtually abolished; also recorded: no recruitment of p85” in assay [2] (CTL-EN βcHSRSLP→EFAAAA) and “no recruitment of p85” in assay [2] (CTL-EN βcS585G).
